Here are results for 16 molecules from patent publication EP4603105A1, “PHARMACEUTICAL COMPOSITION CONTAINING CYCLIC COMPOUND HAVING SELECTIVE KRAS INHIBITORY EFFECT AGAINST HRAS AND NRAS” (CHUGAI SEIYAKU KABUSHIKI KAISHA, priority 2022, dated 2024).

By UniProt entry, the sequences of proteins in these tests, tags left out.
UniProt P01112, whole entry: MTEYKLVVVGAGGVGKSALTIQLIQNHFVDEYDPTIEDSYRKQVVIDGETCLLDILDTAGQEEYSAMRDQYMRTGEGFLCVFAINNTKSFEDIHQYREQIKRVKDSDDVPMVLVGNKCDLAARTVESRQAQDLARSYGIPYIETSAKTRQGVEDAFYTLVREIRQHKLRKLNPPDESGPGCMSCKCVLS

Molecules are shown by their SMILES.

One experiment deals with HRAS wild-type protein (Homo sapiens, UniProt P01112). Nature of the experiment: Binding to HRAS by surface plasmon resonance (SPR), KD and KD ratio to KRAS. The settings on record: ratio of KD for HRAS wild-type protein to KD for KRAS. On the technique in general: Surface plasmon resonance follows binding to a sensor surface in real time, without labels.
As to `CCC[C@H]1C(=O)N[C@@H]([C@@H](C)CC)C(=O)N2CCC[C@H]2C(=O)N(C)[C@H]2C/C=C\CCN(C2=O)[C@@H](CC2CCC(F)(F)CC2)C(=O)N(C)CC(=O)N[C@@H](CCc2ccc(C(F)(F)F)c(OC)c2)C(=O)N2C[C@H](OCC)C[C@H]2C(=O)N(C)C2(CCC2)C(=O)N(C)[C@@H](C2CCCC2)C(=O)N(C)[C@H](C(=O)N(C)C)CC(=O)N1C`, the “HRAS /KRAS” value was “A (a compound having 10 or more and less than 20 is denoted as A)”.
On the same count and under the same terms, next, `CCCOC[C@H]1C(=O)N[C@@H]([C@@H](C)CC)C(=O)N(C)CC(=O)N(C)[C@H]2C/C=C\CCN(C2=O)[C@@H](Cc2ccc(C)cc2)C(=O)N(C)CC(=O)N[C@@H](CCc2ccc(C(F)(F)F)c(OC)c2)C(=O)N2C[C@@H](C)C[C@H]2C(=O)NC2(CC(C)(C)C2)C(=O)N(C)[C@@H](C2CCCC2)C(=O)N(C)[C@H](C(=O)N(C)C)CC(=O)N1C`: “B (a compound having 3 or more and less than 10 is denoted as B)”.
With `CCOCC1C(=O)NC(C(C)OCC)C(=O)N(C)CC(=O)N(C)C2CC=CCCN(C2=O)C(Cc2ccc(C)cc2)C(=O)N(C)CC(=O)NC(CCc2cc(F)c(C(F)(F)F)c(F)c2)C(=O)N2CC(C)CC2C(=O)NC2(CC(C)(C)C2)C(=O)N(C)C(C2CCCC2)C(=O)N(C)C(C(=O)N(C)CC)CC(=O)N1C` (stereo not shown), the “HRAS /KRAS” value is “A (a compound having 10 or more and less than 20 is denoted as A)”.
As for `CCOC[C@H]1C(=O)N[C@@H]([C@@H](C)CC)C(=O)N2CCC[C@H]2C(=O)N(C)[C@H]2C/C=C\CCN(C2=O)[C@@H](CC2CCC(F)(F)CC2)C(=O)N(C)CC(=O)N[C@@H](CCc2ccc(C(F)(F)F)c(OC)c2)C(=O)N2C[C@H](OCC)C[C@H]2C(=O)N(C)C2(CCC2)C(=O)N(C)[C@@H](C(CC)CC)C(=O)N(C)[C@H](C(=O)N(C)C)CC(=O)N1C`, the “HRAS /KRAS” value is “A (a compound having 10 or more and less than 20 is denoted as A)”.
Same read-out and setting: the result for `CCC[C@H]1C(=O)N[C@@H]([C@@H](C)CC)C(=O)N(C)CC(=O)N(C)[C@H]2C/C=C\CCN(C2=O)[C@@H](Cc2ccc(C(F)(F)F)cc2)C(=O)N(C)CC(=O)N[C@@H](CCc2ccc(C(F)(F)F)c(OC)c2)C(=O)N2C[C@@H](C)C[C@H]2C(=O)N(C)C2(CCC2)C(=O)N(C)[C@@H](C2CCCC2)C(=O)N(C)[C@H](C(=O)N(C)C)CC(=O)N1C` reads “B (a compound having 3 or more and less than 10 is denoted as B)”.

The same experiment, now with this note: ratio of KD with respect to HRAS wild-type protein to KD with respect to KRAS.
As to `CCC(C)C1NC(=O)C(CC2CCC2)N(C)C(=O)CC(C(=O)N2CCOCC2)N(C)C(=O)C(C2CCCC2)N(C)C(=O)C2(CCC2)NC(=O)C2CCCN2C(=O)C(CCc2ccc(C(F)(F)F)c(Cl)c2)NC(=O)CN(C)C(=O)C(Cc2ccc(C(F)(F)F)cc2)N2CC(C)CCC(C2=O)N(C)C(=O)C2CCN2C1=O` (stereo not shown), the “HRAS /KRAS” value is “B (a compound having 3 or more and less than 10 is denoted as B)”.
Still for that read-out and setting: the result for `CCO[C@@H]1C[C@H]2C(=O)NC3(CCC3)C(=O)N(C)[C@@H](C3CCCC3)C(=O)N(C)[C@H](C(=O)N(C)C)CC(=O)N(C)[C@@H](CC(C)C)C(=O)N[C@@H]([C@@H](C)CC)C(=O)N(C)CC(=O)N(C)[C@H]3C/C=C\CCN(C3=O)[C@@H](Cc3ccc(F)cc3C)C(=O)N(C)CC(=O)N[C@@H](CCc3cc(F)c(Cl)c(F)c3)C(=O)N2C1` reads “B (a compound having 3 or more and less than 10 is denoted as B)”; that for `CCCN1CC(=O)NC2(CCC2)C(=O)N(C)[C@@H](C2CCCC2)C(=O)N(C)[C@H](C(=O)N(C)C)CC(=O)N(C)[C@@H](CC)C(=O)N[C@@H]([C@@H](C)CC)C(=O)N(C)CC(=O)N(C)[C@H]2C/C=C\CCN(C2=O)[C@@H](Cc2ccc(C(F)(F)F)cc2)C(=O)N(C)CC(=O)N[C@@H](CCc2cc(F)c(C(F)(F)F)c(F)c2)C1=O`, “A (a compound having 10 or more and less than 20 is denoted as A)”; that for `CCC(C)C1NC(=O)C(CC)N(C)C(=O)CC(C(=O)N(C)C)N(C)C(=O)C(C2CCCC2)N(C)C(=O)C2(CCC2)NC(=O)C(COCCC(C)C)N(C)C(=O)C(CCc2cc(F)c(C(F)(F)F)c(F)c2)NC(=O)CN(C)C(=O)C(Cc2ccc(C(F)(F)F)cc2)N2CCC=CCC(C2=O)N(C)C(=O)CN(C)C1=O` (stereo not shown), “A (a compound having 10 or more and less than 20 is denoted as A)”.
On the same count and under the same terms, the result for `CC[C@H](C)[C@@H]1NC(=O)[C@H](CC)N(C)C(=O)C[C@@H](C(=O)N2CCOCC2)N(C)C(=O)[C@H](C2CCCC2)N(C)C(=O)C2(CCCC2)NC(=O)[C@@H]2CCCN2C(=O)[C@H](CCc2cc(F)c(C(F)(F)F)c(F)c2)NC(=O)CN(C)C(=O)[C@H](Cc2ccc(C(F)(F)F)cc2)N2C[C@H](C)CC[C@@H](C2=O)N(C)C(=O)CN(C)C1=O` reads “B (a compound having 3 or more and less than 10 is denoted as B)”; that for `CC[C@H](C)[C@@H]1NC(=O)[C@H](CC)N(C)C(=O)C[C@@H](C(=O)N2CCOCC2)N(C)C(=O)[C@H](C2CCCC2)N(C)C(=O)C2(CCCC2)NC(=O)[C@@H]2CCCN2C(=O)[C@H](CCc2ccc(C(F)(F)F)c(Cl)c2)NC(=O)CN(C)C(=O)[C@H](Cc2ccc(C(F)(F)F)cc2)N2C[C@H](C)CC[C@@H](C2=O)N(C)C(=O)CN(C)C1=O`, “B (a compound having 3 or more and less than 10 is denoted as B)”.
Still for that read-out and setting: the result for `CCCCN1CC(=O)NC2(CCC2)C(=O)N(C)[C@@H](C2CCCC2)C(=O)N(C)[C@H](C(=O)N(C)C)CC(=O)N(C)[C@@H](CC)C(=O)N[C@@H]([C@@H](C)CC)C(=O)N(C)CC(=O)N(C)[C@H]2C/C=C\CCN(C2=O)[C@@H](Cc2ccc(C(F)(F)F)cc2)C(=O)N(C)CC(=O)N[C@@H](CCc2cc(F)c(C(F)(F)F)c(F)c2)C1=O` reads “A (a compound having 10 or more and less than 20 is denoted as A)”; that for `CCOC1CC2C(=O)NC3(CCC3)C(=O)N(C)C(C3CCCC3)C(=O)N(C)C(C(=O)N3CCOCC3)CC(=O)N(C)C(Cc3ccc(C#N)cc3)C(=O)NC(C(C)CC)C(=O)N(C)CC(=O)N(C)C3CCCCCN(C3=O)C(Cc3ccc(C(F)(F)F)cc3)C(=O)N(C)CC(=O)NC(CCc3cc(F)c(C(F)(F)F)c(F)c3)C(=O)N2C1` (stereo not shown), “B (a compound having 3 or more and less than 10 is denoted as B)”.
As for `CCOC1CC2C(=O)NC3(CCC3)C(=O)N(C)C(C3CCCC3)C(=O)N(C)C(C(=O)N(C)C)CC(=O)N(C)C(Cc3ccccc3)C(=O)NC(C(C)CC)C(=O)N(C)CC(=O)N(C)C3CCCCCN(C3=O)C(Cc3ccc(F)cc3)C(=O)N(C)CC(=O)NC(CCc3cc(F)c(C(F)(F)F)c(F)c3)C(=O)N2C1` (stereo not shown), the “HRAS /KRAS” value is “B (a compound having 3 or more and less than 10 is denoted as B)”.
Same read-out and setting: the result for `CCO[C@@H]1C[C@H]2C(=O)NC3(CCC3)C(=O)N(C)[C@@H](C3CCCC3)C(=O)N(C)[C@H](C(=O)N3CCOCC3)CC(=O)N(C)[C@@H](CC3CCC3)C(=O)N[C@@H]([C@@H](C)CC)C(=O)N(C)CC(=O)N(C)[C@H]3C/C=C\CCN(C3=O)[C@@H](Cc3ccc(C)cc3)C(=O)N(C)CC(=O)N[C@@H](CCc3cc(F)c(C(F)(F)F)c(F)c3)C(=O)N2C1` reads “A (a compound having 10 or more and less than 20 is denoted as A)”.
Still for that read-out and setting: next, `CCO[C@@H]1C[C@H]2C(=O)NC3(CCC3)C(=O)N(C)[C@@H](C(CC)CC)C(=O)N(C)[C@H](C(=O)N(C)C)CC(=O)N(C)[C@@H](CC3CC3)C(=O)N[C@@H]([C@@H](C)CC)C(=O)N(C)CC(=O)N(C)[C@H]3C/C=C\CCN(C3=O)[C@@H](CC3CCC(F)(F)CC3)C(=O)N(C)CC(=O)N[C@@H](CCc3cc(F)c(C(F)(F)F)c(F)c3)C(=O)N2C1`: “A (a compound having 10 or more and less than 20 is denoted as A)”.
